# Antibody variant affinities, Ab-91 heavy chain, assay 2

Source: Engelhart et al. 2022 (doi:10.1038/s41597-022-01779-4), MIT Lincoln Laboratory and A-Alpha Bio; data file from the FLAb repository.

Target: peptide PDVDLGDISGINAS, taken from heptad repeat 2 (HR2) of SARS-CoV-2 spike.

Each scFv is VL, three GGGGS repeats, VH, as in the parent Ab-91, and differs from it in the CDRs of the heavy chain only.
VL: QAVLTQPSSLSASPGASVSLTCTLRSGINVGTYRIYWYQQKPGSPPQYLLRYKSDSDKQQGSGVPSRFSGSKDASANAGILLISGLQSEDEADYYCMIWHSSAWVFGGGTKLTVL
VH: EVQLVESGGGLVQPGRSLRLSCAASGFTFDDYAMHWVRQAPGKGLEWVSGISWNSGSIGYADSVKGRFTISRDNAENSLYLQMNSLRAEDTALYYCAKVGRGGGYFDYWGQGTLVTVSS

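The parent was found by panning a naive human phage display library on the peptide. In library AAYL51, one, two or three CDR residues were substituted; doubles and triples were drawn at random. In AlphaSeq, yeast of one mating type display the scFv and yeast of the other type display the target. After mating in shaken culture at 30 °C for 16 h, diploids were selected and their barcode pairs sequenced. Read counts were normalised to the haploid input and turned into Kd by a linear fit to BCL2-family pairs of known affinity, for each replicate. The assay was run in three technical replicates.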

Changes read parent residue, position, new residue, counted from the first residue of the VH shown.
Numbers give log10(Kd / nM), so 0 is 1 nM and 3 is 1 µM. Smaller is tighter.
A mean of the replicates is given; it leaves out those without a signal.
A pair that was not seen in any replicate is written "not detected"; this usually means weak binding, but a binder can also be missed.

changes	mean, log10 nM	replicates with signal	control signals
F27R Y32R S63N	5.04	1/3	4/9
Y60K G103Y Y105I	not detected	0/3	0/9
G26Y G100R G104V	4.60	1/3	2/9
I51Q G100W G102L	not detected	0/3	1/9
T28I S55M K65P	3.56	1/3	2/9
Y32V V64T V99T	3.22	1/3	0/9
Y60W V99N G102Y	5.58	1/3	1/9
T28V A33G H35R	not detected	0/3	0/9
D30A G102E Y105V	2.72	3/3	0/9
S52I G59V G100E	not detected	0/3	0/9
Y60D D62I	not detected	0/3	0/9
G50A S63K V99H	4.61	2/3	2/9
F27T G56E G103C	3.76	3/3	0/9
D30W I51C F106P	4.66	3/3	7/9
F29Q N54L S63D	6.15	1/3	5/9
G50P N54D I58S	4.83	3/3	2/9
G50P K65N G103D	not detected	0/3	0/9
S52R S57I R101N	not detected	0/3	0/9
T28E I58K Y105W	not detected	0/3	1/9
A33W D62G	4.79	2/3	3/9
G26N F27I S52L	not detected	0/3	0/9
G26I D62E V99N	not detected	0/3	0/9
D30C I51P G56Y	not detected	0/3	0/9
S57R D62N G103E	4.32	1/3	1/9
T28I V99Q Y105M	4.24	3/3	5/9
H35M G103E	4.68	3/3	3/9
Y60T Y105N	not detected	0/3	3/9
S52A S57K	not detected	0/3	0/9
K65A R101Y	1.95	3/3	4/9
W53R K65L G102A	3.10	3/3	3/9
I51Q G56I G102E	4.34	1/3	2/9
W53C S55W Y60C	4.97	2/3	6/9
M34D S57P G100V	5.20	2/3	2/9
S52R D62P G102N	5.93	3/3	4/9
G50L S55N D62P	5.37	3/3	1/9
F29R I58E R101F	not detected	0/3	1/9
G26K K65L V99K	4.93	1/3	1/9
G26D S57H I58R	not detected	0/3	1/9
D30V A33D G102I	3.50	1/3	0/9
D31S S55T	4.90	1/3	1/9
G50C N54K F106D	3.95	1/3	1/9
D31C S55G S57A	6.33	1/3	5/9
S57F D107S	4.59	1/3	2/9
F27D H35N I51M	1.94	3/3	1/9
I51C N54M Y108E	1.81	1/3	0/9
T28R G59H K65A	4.43	1/3	1/9
D30H S52T N54S	5.24	2/3	3/9
M34S G103P Y105A	not detected	0/3	1/9
F27W M34G H35R	not detected	0/3	1/9
D30R Y108E	0.67	3/3	7/9
G56V Y60F G100A	4.12	3/3	1/9
D31E G59T D107G	3.95	2/3	4/9
M34N W53G S63A	4.99	2/3	0/9
A33F G104L F106V	2.85	1/3	0/9
F27G Y60F G102S	5.05	3/3	7/9
I51T S63N D107R	4.31	3/3	5/9
M34T S63Y V64R	4.20	1/3	0/9
A61G G100V	1.23	3/3	1/9
F27C H35K R101Y	5.41	2/3	4/9
G26D V64K G104W	4.17	1/3	3/9

Again, the first 8 entries without any signal:

{"changes": "Y60K G103Y Y105I", "mean, log10 nM": "not detected", "replicates with signal": "0/3", "control signals": "0/9"}
{"changes": "I51Q G100W G102L", "mean, log10 nM": "not detected", "replicates with signal": "0/3", "control signals": "1/9"}
{"changes": "T28V A33G H35R", "mean, log10 nM": "not detected", "replicates with signal": "0/3", "control signals": "0/9"}
{"changes": "S52I G59V G100E", "mean, log10 nM": "not detected", "replicates with signal": "0/3", "control signals": "0/9"}
{"changes": "Y60D D62I", "mean, log10 nM": "not detected", "replicates with signal": "0/3", "control signals": "0/9"}
{"changes": "G50P K65N G103D", "mean, log10 nM": "not detected", "replicates with signal": "0/3", "control signals": "0/9"}
{"changes": "S52R S57I R101N", "mean, log10 nM": "not detected", "replicates with signal": "0/3", "control signals": "0/9"}
{"changes": "T28E I58K Y105W", "mean, log10 nM": "not detected", "replicates with signal": "0/3", "control signals": "1/9"}

Parent in this assay: reference entry 1.86, copy in this library 0.88.
As a blank, each scFv also met three strains without target: over library AAYL51, 21% of these pairings were detected, typically at 4.54 and seldom below 3.26. For each scFv, signals with the empty controls are counted beside the result.